# According to PubChem BioAssay AID504797 (The Scripps Research Institute Molecular Screening Center, 2011):
# Only a part is listed here, and it is no random draw. Calls of active or inactive are those of the source. No stated cut-off is given here; in the data, active means activation above about 19%; inactive means the rest.
# Target: cAMP-dependent protein kinase type II-beta regulatory subunit (Homo sapiens) (UniProt P31323)
# Assay: activators of PKA-R2B holoenzyme, confirmation, biochemical, fluorescence polarization, human (AID 504797)
# Conditions: PKA-R2B complex, at 11.4 µM, hits give high values
smiles,measurement,value
COc1ccc(NP(C)(=O)Oc2ccccc2OC)cc1 (stereo unspecified),activation,inactive: 6.16%
